# Data: patent US12419855B2, “Compositions comprising cannabinoid ions that are dissolved in glycerol” (Natural Extraction Systems, LLC, priority 2019, dated 2025)
# Test system: psychoactive effect
# Experiment: Psychoactive effects after oral consumption
# Settings: adult human; 10 milligrams orally in a formulation prepared according to Example 5; self-reported
smiles,measurement,value
"CCCCCc1cc(O)c2c(c1)OC(C)(C)C1CCC(C)=CC21 (stereo not shown) [tetrahydrocannabinol anion, 6,6,9-trimethyl-3-pentyl-6a,7,8,10a-tetrahydro-6H-benzo[c]chromen-1-oxide]",psychoactive effect,no marked psychoactive effect
